Measured values: patent publication US20260062422A1 (Halda Therapeutics OpCo, Inc., priority 2022, published 2026)

How the values were obtained:
BRD4-BD2 = BRD4-BD2 (Homo sapiens, UniProt O60885); assay: bromoKdELECT assay for binding affinity to BRD4-BD2; settings: Table 7
Procedure: Compounds were tested using a bromoKdELECT assay. T7 phage strains displaying bromodomains were grown in parallel in 24-well blocks in an E. coli host derived from the BL21 strain. E. coli were grown to log-phase and infected with T7 phage from a frozen stock (multiplicity of infection=0.4) and incubated with shaking at 32° C. until lysis (90-150 minutes). The lysates were centrifuged (5,000×g) and filtered (0.2 μm) to remove cell debris. Streptavidin-coated magnetic beads were treated with biotinylated small molecule or acetylated peptide ligands for 30 minutes at room temperature to generate affinity resins for bromodomain assays. The liganded beads were blocked with excess biotin and washed with blocking buffer (SeaBlock (Pierce), 1% BSA, 0.05% Tween 20, 1 mM DTT) to remove unbound ligand and to reduce nonspecific phage binding. Binding reactions were assembled by combining bromodomains, liganded affinity beads, and test compounds in 1× binding buffer (17% SeaBlock, 0.33×PBS, 0.04% Tween 20, 0.02% BSA, 0.004% Sodium azide, 7.4 mM DTT). Test compounds were prepared as 1000× stocks in 100% DMSO. Kds were determined using an 11-point 3-fold compound dilution series with one DMSO control point. All compounds for Kd measurements are distributed by acoustic transfer (non-contact dispensing) in 100% DMSO. The compounds were then diluted directly into the assays such that the final concentration of DMSO was 0.09%. All reactions performed in polypropylene 384-well plates. Each was a final volume of 0.02 ml. The assay plates were incubated at room temperature with shaking for 1 hour and the affinity beads were washed with wash buffer (1×PBS, 0.05% Tween 20). The beads were then resuspended in elution buffer (1×PBS, 0.05% Tween 20, 2 μM non-biotinylated affinity ligand) and incubated at room temperature with shaking for 30 minutes. The bromodomain concentration in the eluates was measured by qPCR.

[1] = test system: T-Rex 293 cell line SC3 cells lacking increased expression of androgen receptor protein; assay: Cellular growth inhibition, T-Rex 293 SC3 cells without doxycycline, CellTiter-Glo; settings: T-Rex 293 SC3 cells not exposed to doxycycline; 72 hours; CellTiter-Glo 2.0
Procedure: The following types of cells were prepared for this experiment: (i) a T-Rex 293 cell line having increased expression of androgen receptor protein due to exposure to doxycycline and (ii) a T-Rex 293 cell line lacking increased expression of androgen receptor protein. Ability of the test compounds to inhibit proliferation of the foregoing cell types was evaluated according to the procedures set forth below.
The doxycycline-inducible androgen receptor protein expressing cell line was established using the following protocol: T-Rex 293 cells were purchased from Invitrogen (Cat #R71007) and transfected using Lipofectamine 2000 with the wild-type androgen receptor protein sequence cloned into the pcDNA4/TO vector. Transfected cells were selected using 400 μg/mL Zeocin (Invitrogen Cat #R25001). Following selection, single clones were raised and maintained in Dulbecco's Modified Eagle Medium (DMEM) supplemented with 10% w/w Tetracycline-free fetal bovine serum (FBS) and 250 μg/mL Zeocin. Clones were analyzed for expression of androgen receptor protein in the presence and absence of 10 ng/mL doxycycline (Sigma Cat #D9891), and a single doxycycline-inducible clone (hereinafter “SC3”) was selected for use in downstream assays. […]
At 24 hours after seeding of the cells, dilutions of test compound were prepared in DMSO and dissolved in Treatment Medium, to achieve a final DMSO concentration of 0.5% w/w, thereby providing the Test Compound Solution. […] At the end of the treatment duration, cell viability was quantified with CellTiter-Glo 2.0 reagent (Promega Cat #G9243). […] Following incubation, the plates were spun at 3000×g for 30 seconds, then sealed with an optical adhesive cover, and luminescence readings were measured with an EnVision Plate Reader. Data was normalized using zero luminescence for baseline. […]

`CCNC(=O)C[C@@H]1N=C(c2ccc(CN3CCN(c4ncc(C(=O)N[C@H]5C(C)(C)[C@H](Oc6ccc(C#N)c(Cl)c6)C5(C)C)cn4)CC3)cc2)c2c(sc(C)c2C)-n2c(C)nnc21` was tested, and the Kd (BRD4-BD2) was 50 to 500 nM and the GI50 [1] was 500 to 1500 nM.
`CCNC(=O)C[C@@H]1N=C(c2ccc(CC3CCN(c4ncc(C(=O)N[C@H]5C(C)(C)[C@H](Oc6ccc(C#N)c(Cl)c6)C5(C)C)cn4)CC3)cc2)c2c(sc(C)c2C)-n2c(C)nnc21` was tested, and the Kd (BRD4-BD2) was > 2500 nM and the GI50 [1] was < 500 nM.
`CCNC(=O)C[C@@H]1N=C(c2ccc(N3CC4(C3)CN(c3ncc(C(=O)N[C@H]5C(C)(C)[C@H](Oc6ccc(C#N)c(Cl)c6)C5(C)C)cn3)C4)cc2)c2c(sc(C)c2C)-n2c(C)nnc21` was tested, and the Kd (BRD4-BD2) was 50 to 500 nM and the GI50 [1] was 500 to 1500 nM.
